Measured values as given in patent US9073917B2, “Anti-cancer compound and pharmaceutical composition containing the same” (SANOFI, priority 2009, dated 2015).

The chains behind the UniProt entries cited, without tags or fusion partners.
UniProt Q96GD4, whole entry: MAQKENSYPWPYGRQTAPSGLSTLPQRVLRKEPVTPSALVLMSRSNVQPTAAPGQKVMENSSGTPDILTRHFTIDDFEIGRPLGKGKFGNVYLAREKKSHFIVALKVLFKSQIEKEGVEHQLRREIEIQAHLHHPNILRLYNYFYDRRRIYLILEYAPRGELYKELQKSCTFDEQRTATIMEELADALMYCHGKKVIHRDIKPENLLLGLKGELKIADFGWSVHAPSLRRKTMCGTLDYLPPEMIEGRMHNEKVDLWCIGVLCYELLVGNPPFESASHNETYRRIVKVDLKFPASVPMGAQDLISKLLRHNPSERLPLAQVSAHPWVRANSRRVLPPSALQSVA

Molecular target: Aurora B/Incenp (Homo sapiens (Human), UniProt Q96GD4)
Test: Aurora B/Incenp kinase activity, radioactive 33P incorporation into NuMA fragment

SMILES: CCOC(=O)c1[nH]cc2c1NC1=C(C(=O)CCC1)[C@@H]2c1ccc(Sc2nc3ccccc3[nH]2)o1 [Example 12]
- IC50: 3 nM
